Here are results for one substance from publication PMC9634796, “Opioid Antagonists from the Orvinol Series as Potential Reversal Agents for Opioid Overdose” (2022).

Protein sequences, listed by entry. Tags and fused reporters are not part of them.
UniProt P35372, whole entry: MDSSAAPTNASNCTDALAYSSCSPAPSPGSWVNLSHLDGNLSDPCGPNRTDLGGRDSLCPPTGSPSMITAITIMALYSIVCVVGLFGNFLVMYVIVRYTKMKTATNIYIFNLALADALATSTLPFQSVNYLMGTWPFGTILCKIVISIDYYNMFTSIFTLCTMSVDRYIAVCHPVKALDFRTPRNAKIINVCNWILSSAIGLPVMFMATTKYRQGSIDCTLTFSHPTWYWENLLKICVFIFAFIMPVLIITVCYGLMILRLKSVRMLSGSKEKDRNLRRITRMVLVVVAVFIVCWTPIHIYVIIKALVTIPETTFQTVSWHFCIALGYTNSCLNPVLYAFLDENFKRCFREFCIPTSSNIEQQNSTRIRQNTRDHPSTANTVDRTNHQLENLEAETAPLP
UniProt P41145, whole entry: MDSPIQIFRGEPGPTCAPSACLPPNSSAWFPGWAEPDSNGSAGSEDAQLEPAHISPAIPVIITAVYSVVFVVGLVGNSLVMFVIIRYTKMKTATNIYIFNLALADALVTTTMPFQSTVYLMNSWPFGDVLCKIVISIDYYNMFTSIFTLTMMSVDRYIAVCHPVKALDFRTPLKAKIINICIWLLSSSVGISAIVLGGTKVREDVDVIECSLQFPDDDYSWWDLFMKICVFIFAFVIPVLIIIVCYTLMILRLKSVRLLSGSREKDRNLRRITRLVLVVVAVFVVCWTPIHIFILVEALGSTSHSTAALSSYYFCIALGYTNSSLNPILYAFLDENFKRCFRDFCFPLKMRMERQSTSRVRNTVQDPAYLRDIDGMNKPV
UniProt P41143, whole entry: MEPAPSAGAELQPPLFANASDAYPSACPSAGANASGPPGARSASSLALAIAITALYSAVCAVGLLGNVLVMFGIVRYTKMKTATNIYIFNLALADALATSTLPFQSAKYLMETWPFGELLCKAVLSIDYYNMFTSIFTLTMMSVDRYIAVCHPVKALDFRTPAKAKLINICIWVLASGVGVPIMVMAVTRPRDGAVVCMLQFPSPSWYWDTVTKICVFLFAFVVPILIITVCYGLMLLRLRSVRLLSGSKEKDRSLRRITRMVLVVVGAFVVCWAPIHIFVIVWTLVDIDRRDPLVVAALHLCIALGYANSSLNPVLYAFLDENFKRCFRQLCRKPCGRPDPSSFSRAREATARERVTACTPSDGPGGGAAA

Some compounds may have been tested in ways that are not shown here.

Test in all cases: […]GTPγS binding stimulation, CHO membrane homogenates
Background: Binding of GTPγS marks nucleotide exchange on a G protein.

In assay [1] the target is hMOR (mu-opioid receptor) (Homo sapiens, UniProt P35372). The settings on record: read-out: MOR / EC50; agonist mode; pH 7.4, 100 mM NaCl, 5 mM MgCl2, 30 μM GDP, 25 °C, 60 min; HCl salt.
In assay [2] the target is hKOR (kappa-opioid receptor) (Homo sapiens, UniProt P41145). To be noted: agonist mode; pH 7.4, 100 mM NaCl, 5 mM MgCl2, 30 μM GDP, 25 °C, 60 min; HCl salt.
For assay [3], the target named is hDOR (delta-opioid receptor) (Homo sapiens, UniProt P41143). To be noted: read-out: DOR / EC50; agonist mode; pH 7.4, 100 mM NaCl, 5 mM MgCl2, 30 μM GDP, 25 °C, 60 min; HCl salt.

Take “(5α,6R,7R,14α)-2′-(17-Cyclopropylmethyl-4,5-epoxy-7,8-dihydro-3-hydroxy-6-methoxy-7β-methyl-6,14-ethano-morphinan-7-yl)-propan-2′-ol”: the EC50 was 0.0993 µM in assay [1], more than 10 µM in assay [2] and 0.0111 µM in assay [3].
